# Assay results as given in PMC3931418 (Nature, 2014).
# Amino acid sequences for entries named in this document (tags omitted).
# UniProt P41143, whole entry D95A: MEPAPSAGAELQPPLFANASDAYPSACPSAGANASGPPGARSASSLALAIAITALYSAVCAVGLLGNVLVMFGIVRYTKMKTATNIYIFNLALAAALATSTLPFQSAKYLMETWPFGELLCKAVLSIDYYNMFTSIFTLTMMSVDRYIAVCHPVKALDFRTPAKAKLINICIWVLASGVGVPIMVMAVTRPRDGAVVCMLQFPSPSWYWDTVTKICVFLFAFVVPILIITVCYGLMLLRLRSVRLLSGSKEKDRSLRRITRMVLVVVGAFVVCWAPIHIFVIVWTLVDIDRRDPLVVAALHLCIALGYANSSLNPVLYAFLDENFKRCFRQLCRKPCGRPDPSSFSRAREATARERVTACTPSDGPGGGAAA
# UniProt P41143, whole entry N314A: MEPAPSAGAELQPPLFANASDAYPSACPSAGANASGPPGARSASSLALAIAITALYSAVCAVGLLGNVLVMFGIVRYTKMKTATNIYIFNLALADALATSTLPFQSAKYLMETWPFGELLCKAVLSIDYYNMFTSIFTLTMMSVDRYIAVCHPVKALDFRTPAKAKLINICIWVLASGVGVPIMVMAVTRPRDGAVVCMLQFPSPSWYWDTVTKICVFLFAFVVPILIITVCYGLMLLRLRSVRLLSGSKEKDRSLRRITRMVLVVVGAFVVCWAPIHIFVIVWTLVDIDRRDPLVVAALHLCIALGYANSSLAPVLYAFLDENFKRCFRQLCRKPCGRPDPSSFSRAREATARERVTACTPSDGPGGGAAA
# UniProt P41143, whole entry N310A: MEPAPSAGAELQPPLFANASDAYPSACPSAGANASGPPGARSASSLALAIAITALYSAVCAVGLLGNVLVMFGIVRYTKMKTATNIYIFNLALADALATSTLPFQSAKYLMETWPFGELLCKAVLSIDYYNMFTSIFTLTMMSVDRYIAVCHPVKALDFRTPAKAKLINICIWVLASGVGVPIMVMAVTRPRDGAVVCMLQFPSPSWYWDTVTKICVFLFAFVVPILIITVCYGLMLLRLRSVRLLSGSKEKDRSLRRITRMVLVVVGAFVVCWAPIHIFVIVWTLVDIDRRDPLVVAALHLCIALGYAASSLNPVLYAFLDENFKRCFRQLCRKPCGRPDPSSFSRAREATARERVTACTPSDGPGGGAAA
# UniProt P41143, whole entry N131V: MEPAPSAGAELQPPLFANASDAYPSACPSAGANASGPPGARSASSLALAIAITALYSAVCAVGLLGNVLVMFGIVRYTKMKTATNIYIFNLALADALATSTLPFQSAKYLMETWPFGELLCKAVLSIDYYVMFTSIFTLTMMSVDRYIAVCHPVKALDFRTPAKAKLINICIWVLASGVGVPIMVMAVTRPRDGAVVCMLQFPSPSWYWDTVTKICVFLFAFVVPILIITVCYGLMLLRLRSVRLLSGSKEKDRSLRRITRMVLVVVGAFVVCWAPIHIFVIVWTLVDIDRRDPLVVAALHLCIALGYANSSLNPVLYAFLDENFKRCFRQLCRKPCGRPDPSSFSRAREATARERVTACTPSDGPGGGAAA
# What was measured:
# [1] = target: T1, δ-OR Asp95Ala mutant (Homo sapiens, UniProt P41143, D95A); conditions: Asp95Ala sodium site mutant
# [2] = target: T1, δ-OR Asp95Ala mutant; assay: cAMP assay; assay type: cell-based
# [3] = target: δ-OR Asn314Ala mutant (Homo sapiens, UniProt P41143, N314A)
# [4] = target: δ-OR Asn310Ala mutant (Homo sapiens, UniProt P41143, N310A)
# [5] = target: δ-OR N131V (HEK293) (Homo sapiens, UniProt P41143, N131V); assay type: binding
# [6] = cooperativity of sodium with DADLE
compound,measurement,setting,value
O=C1/C(=C/c2ccccc2)C[C@@]2(O)[C@H]3Cc4ccc(O)c5c4[C@@]2(CCN3CC2CC2)[C@H]1O5 [BNTX],agonist activity at the β-arrestin pathway,[1],gained potent β-arrestin-biased agonist activity
Oc1ccc2c3c1O[C@H]1c4oc5ccccc5c4C[C@@]4(O)[C@@H](C2)N(CC2CC2)CC[C@]314 [naltriben],agonist activity at the β-arrestin pathway,[1],gained potent β-arrestin-biased agonist activity
Oc1ccc2c3c1O[C@H]1c4[nH]c5ccccc5c4C[C@@]4(O)[C@@H](C2)N(CC2CC2)CC[C@]314 [naltrindole],Gi signaling,[2],abrogation of Gi signaling
same,agonist activity at the β-arrestin pathway (β-arrestin recruitment),[3],potent β-arrestin-biased agonist
same,agonist activity at the β-arrestin pathway (β-arrestin recruitment),[4],potent β-arrestin-biased agonist
[Na+] [sodium],Hill Coefficient,[5],0.61 ± 0.02
same,Na+ pKB ± SEM,[5],1.11 ± 0.15
same,pα ± SEM,[5]; [6],1.61 ± 0.86
same,α,[5]; [6],0.025
same,Kb,[5]; read-out: Na+ KB,77 mM
